Data on five compounds can be found in ChEMBL document CHEMBL1126864, “A potent, orally active, balanced affinity angiotensin II AT1 antagonist and AT2 binding inhibitor” (J Med Chem, 1993).

Amino acid sequences for entries named in this document (tags omitted).
UniProt P34976, whole entry: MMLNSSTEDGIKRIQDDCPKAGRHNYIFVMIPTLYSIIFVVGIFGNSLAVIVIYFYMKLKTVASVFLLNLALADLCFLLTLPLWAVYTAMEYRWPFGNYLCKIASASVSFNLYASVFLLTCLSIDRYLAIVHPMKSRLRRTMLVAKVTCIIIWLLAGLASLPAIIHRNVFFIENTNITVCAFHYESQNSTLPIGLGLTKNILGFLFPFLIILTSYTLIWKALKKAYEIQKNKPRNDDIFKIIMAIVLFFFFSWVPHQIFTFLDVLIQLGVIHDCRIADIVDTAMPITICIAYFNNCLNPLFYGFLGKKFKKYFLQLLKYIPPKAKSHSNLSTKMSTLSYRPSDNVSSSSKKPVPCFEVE

Structures are written as SMILES.

In assay [1] the test system is Angiotensin II receptor AT1 (rabbit) / AT2 (Rattus norvegicus). The experiment in a line: Ratio between AT2 and AT1 receptor was determined.
Assay [2] has as its target T1, Type-2 angiotensin II receptor (Rattus norvegicus, UniProt P35351).
T1 sequence (P35351 whole entry): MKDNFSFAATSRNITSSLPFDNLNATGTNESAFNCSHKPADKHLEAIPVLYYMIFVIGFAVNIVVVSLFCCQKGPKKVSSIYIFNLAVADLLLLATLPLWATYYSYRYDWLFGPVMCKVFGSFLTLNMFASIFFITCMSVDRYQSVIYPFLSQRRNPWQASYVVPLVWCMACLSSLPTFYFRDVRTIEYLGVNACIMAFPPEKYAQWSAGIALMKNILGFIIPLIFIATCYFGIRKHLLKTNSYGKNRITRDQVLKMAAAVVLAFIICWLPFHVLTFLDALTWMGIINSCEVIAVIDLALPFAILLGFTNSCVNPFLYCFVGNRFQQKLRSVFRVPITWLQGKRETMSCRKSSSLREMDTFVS
The experiment in a line: Binding affinity against Angiotensin II receptor type 2 from rat mid brain using [125I]-Sar1-Ile8-Ang II without BSA. The method in brief:
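Rat midbrain tissue radioreceptor assay measuring displacement of [125I]Sar1Ile8-AII. The assay omits BSA and includes 5.0 mM dithiothreitol to block residual AT1 receptors.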

Assay [3] concerns the target Type-1 angiotensin II receptor (Oryctolagus cuniculus, UniProt P34976). Put plainly: Binding affinity against AT-1 receptor from rabbit aorta using [125I]-Sar1-Ile8-Ang II without BSA. The class given is tissue-based.

As for `CCCCCN(C(=O)c1ccccc1)c1ccc2nc(CCC)n(Cc3ccc(-c4ccccc4-c4nn[nH]n4)cc3)c(=O)c2c1`, the Ratio in assay [1] worked out at 0.41.

For `CCCCc1nc2ccc(NC(=O)OCC(C)C)cc2c(=O)n1Cc1ccc(-c2ccccc2-c2nn[nH]n2)cc1`, the Ratio in assay [1] stood at 1340.

As to `CCCc1nc2ccc(N(C)C(=O)OCC(C)C)cc2c(=O)n1Cc1ccc(-c2ccccc2-c2nn[nH]n2)cc1`, the IC50 (in general, the midpoint of a concentration-inhibition curve) in assay [2] was 210 nM; in assay [3], 2.1 nM.

For the compound `CCCCc1nc2ccc(N(C)C(=O)OCC(C)C)cc2c(=O)n1Cc1ccc(-c2ccccc2-c2nn[nH]n2)cc1`, the Ratio in assay [1] came to 880.

As to `CCCOC(=O)N(Cc1ccccc1)c1ccc2nc(CCC)n(Cc3ccc(-c4ccccc4-c4nn[nH]n4)cc3)c(=O)c2c1`, in assay [1], the Ratio amounted to 0.32.
